Assay results from paper PMC9872604, “Targeting Multidrug-Recalcitrant Pseudomonas aeruginosa Biofilms: Combined-Enzyme Treatment Enhances Antibiotic Efficacy” (Antimicrobial Agents and Chemotherapy, 2023).

What was measured:
CCCC(=O)N[C@H]1CCOC1=O = experiment: purified protein; conditions: 50 mM sodium phosphate pH 6.8, 37 °C, 10 min, 5% methanol substrate
[1] = tested on: CCCCCCCCCC(=O)CC(=O)N[C@H]1CCOC1=O; experiment: purified protein; conditions: 50 mM sodium phosphate pH 6.8, 37 °C, 10 min, 5% methanol substrate

Substance	Km (CCCC(=O)N[C@H]1CCOC1=O)	kcat (CCCC(=O)N[C@H]1CCOC1=O)	Km [1]	kcat [1]
AidH (Ochrobactrum sp. T63; A147G)	0.16 ± 0.02 mM	55.1 s⁻¹	0.36 ± 0.08 mM	67.2 s⁻¹
AidH (Ochrobactrum sp. T63; A147V)	0.38 ± 0.06 mM	9.79 s⁻¹	0.15 ± 0.02 mM	12.6 s⁻¹
AidH (Ochrobactrum sp. T63; A147F)	1.08 ± 0.25 mM	1.42 s⁻¹	0.64 ± 0.12 mM	9.3 s⁻¹
